ChEMBL document CHEMBL4831477, “Structure-Enabled Discovery of Novel Macrocyclic Inhibitors Targeting Glutaminase 1 Allosteric Binding Site” (J Med Chem, 2021)

Tests used:
[1] = biological target: T1, Glutaminase kidney isoform, mitochondrial (Homo sapiens, UniProt O94925); test: Binding affinity to human GLS1 expressed in Escherichia coli strain BL21 (DE3) assessed as association rate constant by surface plasmon resonance analysis
T1 sequence (O94925 whole entry): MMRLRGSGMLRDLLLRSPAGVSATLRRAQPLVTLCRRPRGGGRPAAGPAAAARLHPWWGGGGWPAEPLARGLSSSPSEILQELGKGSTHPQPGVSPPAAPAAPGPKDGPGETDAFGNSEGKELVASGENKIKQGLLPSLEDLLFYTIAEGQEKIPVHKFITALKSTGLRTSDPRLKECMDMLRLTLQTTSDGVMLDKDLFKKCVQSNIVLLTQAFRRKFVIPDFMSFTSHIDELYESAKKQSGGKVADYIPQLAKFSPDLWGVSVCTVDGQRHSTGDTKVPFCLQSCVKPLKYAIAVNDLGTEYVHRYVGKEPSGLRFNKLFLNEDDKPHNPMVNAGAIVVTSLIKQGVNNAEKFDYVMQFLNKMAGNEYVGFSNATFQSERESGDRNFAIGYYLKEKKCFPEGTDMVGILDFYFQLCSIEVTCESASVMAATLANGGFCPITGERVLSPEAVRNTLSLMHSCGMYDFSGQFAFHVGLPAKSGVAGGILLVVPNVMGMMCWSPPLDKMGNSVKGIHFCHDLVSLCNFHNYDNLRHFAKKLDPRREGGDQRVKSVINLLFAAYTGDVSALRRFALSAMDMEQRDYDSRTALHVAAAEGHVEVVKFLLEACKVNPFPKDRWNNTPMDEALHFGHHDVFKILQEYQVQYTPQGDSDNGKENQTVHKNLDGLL

[2] = biological target: T2, Glutaminase kidney isoform, mitochondrial (Homo sapiens) (UniProt O94925)
T2 sequence (whole entry): T1 sequence (O94925 whole entry)

[3] = biological target: T1, Glutaminase kidney isoform, mitochondrial; test: Binding affinity to human GLS1 expressed in Escherichia coli strain BL21 (DE3) assessed as dissociation constant by surface plasmon resonance analysis
[4] = biological target: T2, Glutaminase kidney isoform, mitochondrial (Homo sapiens); remark: listed apart in the source
[5] = biological target: T2, Glutaminase kidney isoform, mitochondrial (Homo sapiens); conditions: HCT-116, dose 50-200 nM, time 12.0 hrs
[6] = biological target: T2, Glutaminase kidney isoform, mitochondrial (Homo sapiens); remark: listed apart in the source
[7] = biological target: T2, Glutaminase kidney isoform, mitochondrial (Homo sapiens); conditions: dose 300.0 µM
[8] = biological target: T2, Glutaminase kidney isoform, mitochondrial (Homo sapiens); conditions: HCT-116, dose 50-200 nM, time 12.0 hrs; remark: listed apart in the source
[9] = biological target: T1, Glutaminase kidney isoform, mitochondrial; test: Binding affinity to human GLS1 expressed in Escherichia coli strain BL21 (DE3) by ITC analysis
[10] = biological target: T2, Glutaminase kidney isoform, mitochondrial (Homo sapiens); conditions: HCT-116, dose 50-200 nM, time 12.0 hrs; remark: listed apart in the source
[11] = biological target: T2, Glutaminase kidney isoform, mitochondrial (Homo sapiens); conditions: HCT-116, dose 50-200 nM
[12] = Ratio of fCmax in BALB/c nude mouse plasma xenografted with human HCT-116 cells at 200 mg/kg, po administered twice daily for 28 days to IC50 for human HCT-116 cells; type: ADME, organism-based; conditions: in vivo, 672 h, time 28 day
[13] = biological target: T2, Glutaminase kidney isoform, mitochondrial (Homo sapiens); conditions: HCT-116, dose 50-200 nM; remark: listed apart in the source
[14] = biological target: T1, Glutaminase kidney isoform, mitochondrial; test: Inhibition of recombinant human GLS1 expressed in Escherichia coli strain BL21 (DE3) preincubated for 10 mins before glutamine addition and measured after 60 mins by bovine liver glutamate dehydrogenase based coupled enzyme assay
[15] = biological target: T2, Glutaminase kidney isoform, mitochondrial (Homo sapiens); conditions: HCT-116, dose 50-200 nM, time 12.0 hrs; remark: listed apart in the source
[16] = biological target: T2, Glutaminase kidney isoform, mitochondrial (Homo sapiens); conditions: HCT-116, dose 50-200 nM, time 12.0 hrs; remark: listed apart in the source
[17] = biological target: T1, Glutaminase kidney isoform, mitochondrial; test: Binding affinity to human GLS1 expressed in Escherichia coli strain BL21 (DE3) assessed as dissociation rate constant by surface plasmon resonance analysis

Q: What does the source list for `O=C1Cc2cccc(c2)OCC/C=C/CCOc2cccc(c2)CC(=O)Nc2nnc(s2)CCCCc2ccc(nn2)N1`?
A: kon [1]: 20900 M⁻¹ s⁻¹; ΔTm [2]: 16.2 °C; Kd [3]: 24.2 nM; ΔTm [4]: 17.4 °C; inhibition [5]: Active; ΔTm [6]: 18.4 °C; deltaH [7]: -63 kJ/mol; inhibition [8]: Active; Kd [9]: 37 nM; inhibition [10]: Active; inhibition [11]: Active; Ratio [12]: 2.62; inhibition [13]: Active; IC50 [14]: 6 nM; inhibition [15]: Active; inhibition [16]: Active; koff [17]: 0.003 s⁻¹

The source made the active and inactive calls. The calls are words filed in the database; no cut-off is given here.
